# Experimental data reported in PubChem BioAssay (NCI).
# The entries are a selection whose mix differs from that of the whole data set. Some tests of the compounds listed are not included; inactive here does not mean inactive elsewhere. The source holds several records for some structures; these can differ, active in one and inactive in another. Activity calls are given as the source filed them. No stated cut-off is given here; in the data, active means growth inhibition above about 70%; inactive means the rest.
# What was measured:
# [1] = NCI Yeast Anticancer Drug Screen. Data for the rad50 strain (AID 155);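 further: 0% = growth of vehicle-only cultures of the same strain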; conditions: S. cerevisiae rad50 strain growth inhibition, active compounds read high
# [2] = NCI Yeast Anticancer Drug Screen. Data for the mec2-1 strain (AID 157); conditions: S. cerevisiae mec2-1 strain, active compounds read high
# [3] = NCI Yeast Anticancer Drug Screen. Data for the sgs1 mgt1 strain (AID 161);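 further: 0% = growth of cultures given vehicle only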; conditions: S. cerevisiae sgs1 mgt1 strain, active compounds read high
# [4] = NCI Yeast Anticancer Drug Screen. Data for the cln2 rad14 strain (AID 165);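 further: 0% = growth equal to vehicle treated cultures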; conditions: S. cerevisiae cln2 rad14 strain, active compounds read high
# [5] = NCI Yeast Anticancer Drug Screen. Data for the bub3 strain (AID 167); conditions: S. cerevisiae bub3 mutant strain, active compounds read high
# [6] = NCI Yeast Anticancer Drug Screen. Data for the mlh1 rad18 strain (AID 175); conditions: S. cerevisiae mlh1 rad18 strain growth inhibition, active compounds read high
# [7] = at 5.0 µM (retest, dose inferred, filed as 0.5)
# [8] = at 50.0 µM (retest, dose inferred, filed as 5.0)
smiles,measurement,setting,value
CC#CC(O)(C(=O)OCC1=CCCN(C)C1)c1ccccc1 (centres undefined),growth inhibition,[1]; at 50.0 µM,inactive: 2.9%
same,growth inhibition,[2]; at 50.0 µM,inactive: -1.6%
same,growth inhibition,[3]; at 50.0 µM,inactive: 32.8%
same,growth inhibition,[4]; at 50.0 µM,inactive: 22.1%
same,growth inhibition,[5]; at 50.0 µM,inactive: 15.8%
same,growth inhibition,[6]; at 50.0 µM,inactive: -40.7%
CN1CCCC(O)C1COC(=O)C(O)(c1ccccc1)c1ccccc1 (centres undefined),growth inhibition,[1]; at 50.0 µM,inactive: 9.25%
same,growth inhibition,[2]; at 50.0 µM,inactive: -3.7%
same,growth inhibition,[3]; at 50.0 µM,inactive: 14%
same,growth inhibition,[4]; at 50.0 µM,inactive: -15.2%
same,growth inhibition,[5]; at 50.0 µM,inactive: 3.25%
same,growth inhibition,[6]; at 50.0 µM,inactive: 16.6%
C/C=C\C(O)(C(=O)OC1CCN(C)CC1)C1CCCCC1 (centres undefined),growth inhibition,[1]; at 50.0 µM,inactive: 51.8%
same,growth inhibition,[2]; at 50.0 µM,inactive: 24.1%
same,growth inhibition,[3]; at 50.0 µM,inactive: 49.8%
same,growth inhibition,[4]; at 50.0 µM,inactive: 29.3%
same,growth inhibition,[5]; at 50.0 µM,inactive: 34.7%
same,growth inhibition,[6]; at 50.0 µM,inactive: 51.2%
C=C(C)C#CC(O)(C(=O)OC1C2CCN(CC2)C1C)c1ccccc1 (centres undefined),growth inhibition,[1]; at 50.0 µM,inactive: -20.4%
same,growth inhibition,[2]; at 50.0 µM,inactive: -18.8%
same,growth inhibition,[3]; at 50.0 µM,inactive: -21.6%
same,growth inhibition,[4]; at 50.0 µM,inactive: -43.5%
same,growth inhibition,[5]; at 50.0 µM,inactive: -41.8%
same,growth inhibition,[6]; at 50.0 µM,inactive: -50.4%
CC(C)C(O)(C(=O)OCC1=CC2CCN1CC2)c1ccccc1 (centres undefined),growth inhibition,[1]; at 50.0 µM,inactive: 34.8%
same,growth inhibition,[2]; at 50.0 µM,inactive: 25.8%
same,growth inhibition,[3]; at 50.0 µM,inactive: -3.2%
same,growth inhibition,[4]; at 50.0 µM,inactive: -4.85%
same,growth inhibition,[5]; at 50.0 µM,inactive: 1.3%
same,growth inhibition,[6]; at 50.0 µM,inactive: 2.55%
CN1CCC(OC(=O)C(O)(c2ccccc2)c2ccns2)CC1 (centres undefined),growth inhibition,[1]; at 50.0 µM,inactive: 11.2%
same,growth inhibition,[2]; at 50.0 µM,inactive: 2.4%
same,growth inhibition,[3]; at 50.0 µM,inactive: -30.6%
same,growth inhibition,[4]; at 50.0 µM,inactive: 7.1%
same,growth inhibition,[5]; at 50.0 µM,inactive: 5%
same,growth inhibition,[6]; at 50.0 µM,inactive: -10.3%
C#CCN1CCCC(OC(=O)C(O)(c2ccccc2)c2ccccc2)C1 (centres undefined),growth inhibition,[1]; at 50.0 µM,inactive: 36.5%
same,growth inhibition,[2]; at 50.0 µM,inactive: 0.5%
same,growth inhibition,[3]; at 50.0 µM,inactive: 15.7%
same,growth inhibition,[4]; at 50.0 µM,inactive: -23.9%
same,growth inhibition,[5]; at 50.0 µM,inactive: -0.35%
same,growth inhibition,[6]; at 50.0 µM,inactive: 22.1%
C[Si](C)(C)N(CCCl)CCCl,growth inhibition,[1]; [7],inactive: 17%
same,growth inhibition,[1]; [8],active: 97%
same,growth inhibition,[1]; at 50.0 µM,active: 98%
same,growth inhibition,[2]; [7],inactive: 5%
same,growth inhibition,[2]; [8],active: 98%
same,growth inhibition,[2]; at 50.0 µM,active: 96.8%
same,growth inhibition,[3]; [7],inactive: 11%
same,growth inhibition,[3]; [8],active: 98%
same,growth inhibition,[3]; at 50.0 µM,active: 94.3%
same,growth inhibition,[4]; [7],inactive: 2%
same,growth inhibition,[4]; [8],active: 97%
same,growth inhibition,[4]; at 50.0 µM,active: 92.1%
same,growth inhibition,[5]; [7],inactive: 9%
same,growth inhibition,[5]; [8],active: 97%
same,growth inhibition,[5]; at 50.0 µM,active: 97.8%
same,growth inhibition,[6]; [7],inactive: 5%
same,growth inhibition,[6]; [8],active: 97%
same,growth inhibition,[6]; at 50.0 µM,active: 93.9%
O=C(CCCN1CCC(OC(=O)C(O)(c2ccccc2)C2CCCC2)CC1)c1ccccc1 (centres undefined),growth inhibition,[1]; [7],inactive: 33%
same,growth inhibition,[1]; [8],active: 96%
same,growth inhibition,[1]; at 50.0 µM,inactive: 56.9%
same,growth inhibition,[2]; [7],inactive: 24%
same,growth inhibition,[2]; [8],active: 93%
same,growth inhibition,[2]; at 50.0 µM,inactive: 46.6%
same,growth inhibition,[3]; [7],inactive: 29%
same,growth inhibition,[3]; [8],active: 96%
same,growth inhibition,[3]; at 50.0 µM,inactive: 65.7%
same,growth inhibition,[4]; [7],inactive: 16%
same,growth inhibition,[4]; [8],active: 97%
same,growth inhibition,[4]; at 50.0 µM,active: 79.3%
same,growth inhibition,[5]; [7],inactive: 9%
same,growth inhibition,[5]; [8],active: 97%
same,growth inhibition,[5]; at 50.0 µM,active: 76.8%
same,growth inhibition,[6]; [7],inactive: 34%
same,growth inhibition,[6]; [8],active: 97%
same,growth inhibition,[6]; at 50.0 µM,active: 88.8%
CN1CCCC(OC(=O)C(O)(c2ccccc2)C2CCCC2)C1 (centres undefined),growth inhibition,[1]; at 50.0 µM,inactive: 22.1%
same,growth inhibition,[2]; at 50.0 µM,inactive: 21.2%
same,growth inhibition,[3]; at 50.0 µM,inactive: -4.7%
same,growth inhibition,[4]; at 50.0 µM,inactive: -9.65%
same,growth inhibition,[5]; at 50.0 µM,inactive: 24.5%
same,growth inhibition,[6]; at 50.0 µM,inactive: 29%
